Only some compounds are listed: those with a hit (about 1.1% of all), similar ones and a draw of the others.
Apoferritin bind: candidate novel general anesthetic via apoferritin binding. P02791. actives 0.074% (n = 350,000). Potency, µM (series often up to 77.5 µM), without a hit: top-dose activity change, negative = displacement, hits mostly inhibitors. apoferritin/1-aminoanthracene competitive binding, fluorescence; note: potency is the fitted concentration of half-maximal effect; % is set by controls: 0 for no effect and ±100 for the full control effect; nearly all actives have a fitted effect of over 20% in size
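10 uM apoferritin + 50% sat. 1-AMA, PBS; cpd 10 min RT; Ex380/Em535 endpoint; normalized to free probe vs complex; 4-param Hill fit; propofol titration as pos. ctrl.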
p53 reactivator: re-activators of mutant p53; H1299 p53-A138V BP100-luciferase reporter, luminescence, 24 h; Potency, µM (titrated, usually from 92.2 µM), for the others: at the highest dose activity change, positive = activation, actives largely listed as activators; actives 0.063% (n = 320,000); AID 504706; note: potency is the fitted concentration of half-maximal effect; % of control where 0% means no effect; nearly all actives have a fitted effect of over 45% in size
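H1299 (p53-null), stable ts p53-A138V + BP100-Luc; 1000 cells/well, Opti-MEM/10% FBS; cpd 4 pt, 1:5; 24 h, 37 deg C, 5% CO2; detection reagent 10 min RT; luminescence.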
BRCA1 expr up: activators of BRCA1 expression. actives 1.1% (n = 380,000). Potency, µM (highest dose often 46.1 µM), inactives show at the top dose activation, most hits filed as activators. MCF7-BRCA1-FFLuc reporter, luminescence, 48 h; response scale: scaled: vehicle 0%, 10 µM genistein 100%; note: potency is the fitted concentration of half-maximal effect; nearly all actives have a fitted effect of over 80% in size
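Luminescence from a BRCA1-driven firefly luciferase in MCF7 cells was the read-out, taken 15 min after substrate addition following 48 h compound exposure at 37 °C. Data were normalized to a 10 microM genistein control and DMSO vehicle.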
miR-21 FLuc: miR-21 reporter, rising signal; Potency, µM (doses to about 38.3 µM), without a hit: at the top dose reporter change, positive = more light; HeLa miR-21 FLuc reporter, luciferase, 48 h; 340,000 tested, under 10 active; active = well fitted rising curve with a large enough effect; inconclusive = small, poorly fitted or top-dose-only effect; inactive = no such curve, though single readings can be large or run the other way;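 further: % of control where 0% means no effect; miR-21 action dims this reporter so a rising signal means less miR-21 action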
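Luminescence from a firefly luciferase reporter carrying a miR-21 binding site downstream, stably expressed under a CMV promoter in HeLa cells that make miR-21 endogenously, reports miRNA modulation after 48 h compound exposure up to approximately 40uM final.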
Active calls of the source: *; i = inactive; u = inconclusive; x = no result. Unless noted, calls come from the whole dose curve; as a rule, active = well fitted curve in the direction sought with a large enough effect; inconclusive = small, poorly fitted or top-dose-only effect, or another doubt; inactive = no such curve, though single readings can be large; an effect the other way counts as inactive or inconclusive.

#1 CC1NC(=O)C(N)CNC(=O)C(C2CCN=C(N)N2)NC(=O)/C(=C/NC(N)=O)NC(=O)C(CNC(=O)CC(N)CCCN)NC1=O (stereo unspecified)
#2 CCc1cc(=O)oc2cc(OCc3ccc(C(=O)O)o3)ccc12
#3 CC1CCCN(C(=O)CSc2nc3ncccc3[nH]2)C1 (stereo unspecified)
#4 CC1CCCN(C(=O)CSc2cnc3ccccc3n2)C1 (stereo unspecified)
#5 COc1ccc2c(Cl)c(C(N)=O)sc2c1
#6 COc1ccc2c(Cl)c(C(=O)NN)sc2c1
#7 O=C(Cc1ccc(O)cc1)NC1CCCCCC1
#8 Cc1ccc(CNC(=O)NC2CCCCC2)cc1

assay / compound	1	2	3	4	5	6	7	8
p53 reactivator	x	u	5%	29%	13%	u	u	u
miR-21 FLuc	x	-22%	-15%	-51%	-18%	-4%	-53%	-34%
Apoferritin bind	-2%	6%	-20%	u	-7%	-21%	1%	-9%
BRCA1 expr up	x	6.3µM*	41%	11µM*	10µM*	-15%	3.5µM*	10µM*

#9 O=C(CSc1ccc(F)cc1)NC1CCCCC1
#10 Cc1ccc(CNC(=S)NC2CCCCC2)cc1
#11 COc1ccccc1NC(=O)CSc1oc(-c2ccc(F)cc2)nc1S(=O)(=O)c1ccc(Br)cc1
#12 COc1ccc(-c2c(C)nn3c(C(F)(F)F)cc(-c4ccccc4)nc23)cc1
#13 O=C(NNC(=O)c1ccccc1Br)c1ccccc1Cl
#14 O=C(NNC(=S)Nc1ccccc1Cl)c1ccccc1Br
#15 COc1cccc(NC(=O)c2oc3ccccc3c2NC(=O)c2ccccc2C)c1
#16 Cc1ccccc1Cn1c(=O)n(Cc2ccc(Cl)cc2)c(=O)c2cccnc21

assay / compound	9	10	11	12	13	14	15	16
p53 reactivator	18%	18%	x	x	19%	u	x	x
miR-21 FLuc	-38%	-13%	-3%	-4%	-23%	-66%	0%	0%
Apoferritin bind	-7%	u	-3%	2%	-4%	-4%	57%	-8%
BRCA1 expr up	11µM*	1%	x	x	0%	8.9µM*	x	0%

#17 N/C(=N\OC(=O)c1csnn1)c1ccc(C(F)(F)F)cc1
#18 Cc1ccc(NC(=O)C2(C)CCN2C(=O)Cc2ccc(C(C)(C)C)cc2)cc1C (stereo unspecified)
#19 COc1ccc(NC(=O)c2cccnn2)cc1
#20 COc1ccc(NC(=O)c2cc(C)on2)cc1OC
#21 COc1ccc(NC(=O)c2cc(C)on2)cc1
#22 CCN(CC)c1ccc(S(=O)(=O)N2CCOCC2)cc1NC(=O)CN1C(=O)NC2(CCC(C)CC2)C1=O (stereo unspecified)
#23 O=C(N/N=C/c1ccccc1)c1ccc(-c2ccccc2)cc1
#24 O=C(N/N=C\c1ccccc1F)c1ccc(-c2ccccc2)cc1

assay / compound	17	18	19	20	21	22	23	24
p53 reactivator	8%	x	17%	2%	u	-5%	9%	-2%
miR-21 FLuc	-42%	x	-42%	-13%	-39%	x	-8%	-10%
Apoferritin bind	-11%	x	2%	-2%	-8%	x	-4%	-9%
BRCA1 expr up	11µM*	-35%	13µM*	15%	7.1µM*	-23%	59%	10µM*

Values by screen from the list.
Apoferritin bind for entries 17–23: -11%, x, 2%, -2%, -8%, x, -4%
BRCA1 expr up for entries 17–23: 11µM*, -35%, 13µM*, 15%, 7.1µM*, -23%, 59%
p53 reactivator for entries 17–23: 8%, x, 17%, 2%, u, -5%, 9%

New compounds follow:
#25 COc1ccc(NC(=O)c2nnn(Cc3nc(-c4cc(Br)ccc4OC)oc3C)c2C)cc1
#26 Cc1cc(C)n2nc(C(=O)OCC(=O)N(Cc3ccccc3)C(C)C)nc2n1
#27 CSc1nsc(SCC(=O)Nc2ccc(NC(C)=O)cc2)n1
#28 COc1ccc(NC(=O)CSc2nc(SC)ns2)cc1
#29 CCN(CC)S(=O)(=O)c1cccc(N=Nc2sc(N)nc2C)c1
#30 Cc1nc(N)sc1N=Nc1ccccc1C(F)(F)F
#31 COc1ccc(NC(=O)Nc2ccc(OC)cc2)cc1
#32 COc1ccc(NC(=O)Nc2ccc3[nH]ccc3c2)cc1

assay / compound	25	26	27	28	29	30	31	32
p53 reactivator	x	5%	3%	u	-3%	u	14%	x
miR-21 FLuc	-1%	x	1%	-81%	-19%	-90%	-43%	x
Apoferritin bind	0%	x	-9%	0%	-20%	u	-1%	x
BRCA1 expr up	10%	0%	4%	4.5µM*	-28%	7.1µM*	95%	3.2µM*

#33 CC1(C)CC(=O)c2cnc(N3CCN(c4ccccc4)CC3)nc2C1
#34 CC1(C)CC(=O)c2cnc(N3CCc4ccccc4C3)nc2C1
#35 OCCN1CCN(C(c2cccs2)c2ccc3cccnc3c2O)CC1 (stereo unspecified)
#36 CCN1CCN(C(c2ccc(C(F)(F)F)cc2)c2ccc3cccnc3c2O)CC1 (stereo unspecified)
#37 CCCN1CNc2c(c(=O)[nH]c(=S)n2CCc2cccc(OC)c2OC)C1
#38 COc1ccc(-n2c(=O)c3sc4ccccc4c3n(CC(=O)N3CCCC3)c2=O)cc1
#39 O=C(Nc1ccc2ccccc2n1)C1CCCCC1
#40 Cc1cccc(N2CCN(c3ncnc4c3nc3n4CCCCC3)CC2)c1C

assay / compound	33	34	35	36	37	38	39	40
p53 reactivator	2%	32%	-37%	18%	x	x	u	x
miR-21 FLuc	-7%	-51%	23%	25%	x	-1%	-32%	-5%
Apoferritin bind	-8%	-13%	32µM*	u	x	1%	5%	3%
BRCA1 expr up	-5%	7.1µM*	x	-90%	0%	2%	2.8µM*	-4%

Single records, from the list above. Screens in order: p53 reactivator	miR-21 FLuc	Apoferritin bind	BRCA1 expr up
Record of COc1ccc(NC(=O)c2cc(C)on2)cc1 : u	-39%	-8%	7.1µM*
Record of COc1ccc(NC(=O)Nc2ccc(OC)cc2)cc1 : 14%	-43%	-1%	95%

The list goes on:
#41 CNCCCOc1ccc2c(c1)CCC2
#42 CCOc1ccc(NS(=O)(=O)c2cc(C(=O)NCCCN3CCCC3=O)ccc2C)cc1
#43 COc1ccc(Cc2nc3ccc(C(=O)N4CCCCC4CCO)cc3o2)cc1 (stereo unspecified)
#44 COc1ccc(Cc2nc3ccc(C(=O)NCC(C)(C)OC)cc3o2)cc1
#45 O=C(NCC1CCOCC1)c1ccc2nc(Cc3cccc(Cl)c3)oc2c1
#46 COC(=O)CCNC(=O)c1ccc2nc(Cc3ccc(OC)cc3)oc2c1
#47 CCC1CCCCN1C(=O)c1ccc2nc(Cc3ccc(OC)cc3)oc2c1 (stereo unspecified)
#48 CCc1nnc(SCC(=O)N(C)c2ccccc2)c2cc3sccc3n12

assay / compound	41	42	43	44	45	46	47	48
p53 reactivator	-5%	1%	-1%	4%	0%	x	23%	x
miR-21 FLuc	-19%	x	-5%	-41%	-17%	x	-45%	-12%
Apoferritin bind	-9%	x	0%	-16%	i	x	u	-16%
BRCA1 expr up	11µM*	-19%	12%	10µM*	10µM*	1%	11µM*	x

#49 CCCCCCn1cc(CN2CC(N3CCN(Cc4cccc(C)c4)CC3)CS2(=O)=O)nn1 (stereo unspecified)
#50 O=C(COC(=O)c1ccc(O)cc1O)c1ccc2c(c1)OCO2
#51 O=C(CNC(=O)c1ccc(Cl)cc1Cl)OCC(=O)c1ccc2c(c1)OCCO2
#52 O=C(COC(=O)c1ccc(O)cc1)c1ccc2c(c1)OCCO2
#53 O=C(CCN1CCOCC1)c1ccc2c(c1)OCCO2
#54 O=C(COC(=O)CNC(=O)c1ccc(Cl)cc1Cl)NCC1CCCO1 (stereo unspecified)
#55 O=C(OCCN1CCOCC1)c1ccc2c(c1)OCCO2
#56 CC1(C(=O)NS(=O)(=O)Cc2ccccc2)CCN1C(=O)Cc1cc(F)ccc1F (stereo unspecified)

assay / compound	49	50	51	52	53	54	55	56
p53 reactivator	x	7%	9%	25%	-33%	4%	x	x
miR-21 FLuc	x	-22%	-6%	x	-1%	x	-44%	x
Apoferritin bind	x	u	14µM*	x	-8%	x	-7%	x
BRCA1 expr up	-12%	24%	31%	10µM*	-69%	22%	7.9µM*	16%

#57 CN(Cc1ccccc1)c1ccc(-c2nc(-c3ccco3)no2)cc1[N+](=O)[O-]
#58 Clc1cccc(CNc2ccn3nc(-c4cccs4)cc3n2)c1
#59 COc1ccccc1-c1nc(SCC(=O)c2ccc(Cl)cc2)n[nH]1
#60 CCOC(=O)c1cc(-c2ccc(OC)cc2)n[nH]1

assay / compound	57	58	59	60
p53 reactivator	x	x	x	u
miR-21 FLuc	18%	x	-8%	-47%
Apoferritin bind	u	x	-9%	2%
BRCA1 expr up	13%	8.9µM*	x	11µM*

Screening results from PubChem BioAssay.
